The source of these data is ChEMBL document CHEMBL2021912, “Synthesis, cytotoxicity and apoptosis of cyclotriphosphazene compounds as anti-cancer agents” (Eur J Med Chem, 2012).

One experiment has as its system HEp-2. Nature of the experiment: Cytotoxicity against human Hep2 cells after 24 hrs at 37 degC by MTT assay. In kind it is functional. The method, boiled down: (§1)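 Vero and HT-29 grown in DMEM/10% FBS, Hep2 in EMEM/10% FBS; seeded at 2 × 10^4 (Vero, Hep2) or 3 × 10^4 (HT-29) cells/mL; exposed 24 h to 0.2–50 µg/mL compound, final DMSO 1%; MTT 1 mg/mL 2 h at 37 °C, formazan in DMSO, OD 540 nm; % of DMSO control; ID50 by probit; triplicate wells, three repeats.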
In general terms: Tetrazolium dyes change colour on reduction, which living cells bring about.

For another experiment, the system named is HT-29. Nature of the experiment: Cytotoxicity against human HT-29 cells after 24 hrs at 37 degC by MTT assay. In kind it is functional. Summed up:
as §1

SMILES strings stand for the structures. Calls of active or inactive are those of the source. The rule behind the calls is not given here.

Regarding `CC1(C)COP2(=NP(Cl)(Cl)=NP(Cl)(Cl)=N2)OC1`, the ID50 with HEp-2 worked out at 2.3 µM; in the experiment with HT-29 it was 4.09 µM.

`FC1(F)COP2(Cl)=NP(Cl)(Cl)=NP(Cl)(=N2)OCC1(F)F` (stereo unspecified): the ID50 stood at 2.7 µM in the experiment with HEp-2 and 5.59 µM in the experiment with HT-29.

In the case of `ClP1(Cl)=NP(Cl)(Cl)=NP(Cl)(Cl)=N1`, the ID50 entry in the experiment on HEp-2 is “inactive”.

On to `ClP1(Cl)=NP(Cl)(Cl)=NP(Nc2ccccc2)(Nc2ccccc2)=N1`, for which the ID50 entry in the experiment with HEp-2 and with HT-29 was “inactive” throughout.

Turning to `ClP1(Cl)=NP(Cl)(Cl)=NP(Sc2ccccc2)(Sc2ccccc2)=N1`, the ID50 in the experiment with HEp-2 is 5.43 µM; in the experiment with HT-29, 3.78 µM.

As to `FC1(F)COP2(=NP(Cl)(Cl)=NP(Cl)(Cl)=N2)OCC1(F)F`, the ID50 in the experiment with HEp-2 was determined as 3.3 µM; with HT-29, 4.31 µM.
